Data from patent US7759499B2, “Compounds as inhibitors of hepatitis C virus NS3 serine protease” (Schering Corporation, priority 2004, dated 2010).

Amino acid sequences for entries named in this document (tags omitted). Residues count along the entry.
UniProt P27958, 1027-1657: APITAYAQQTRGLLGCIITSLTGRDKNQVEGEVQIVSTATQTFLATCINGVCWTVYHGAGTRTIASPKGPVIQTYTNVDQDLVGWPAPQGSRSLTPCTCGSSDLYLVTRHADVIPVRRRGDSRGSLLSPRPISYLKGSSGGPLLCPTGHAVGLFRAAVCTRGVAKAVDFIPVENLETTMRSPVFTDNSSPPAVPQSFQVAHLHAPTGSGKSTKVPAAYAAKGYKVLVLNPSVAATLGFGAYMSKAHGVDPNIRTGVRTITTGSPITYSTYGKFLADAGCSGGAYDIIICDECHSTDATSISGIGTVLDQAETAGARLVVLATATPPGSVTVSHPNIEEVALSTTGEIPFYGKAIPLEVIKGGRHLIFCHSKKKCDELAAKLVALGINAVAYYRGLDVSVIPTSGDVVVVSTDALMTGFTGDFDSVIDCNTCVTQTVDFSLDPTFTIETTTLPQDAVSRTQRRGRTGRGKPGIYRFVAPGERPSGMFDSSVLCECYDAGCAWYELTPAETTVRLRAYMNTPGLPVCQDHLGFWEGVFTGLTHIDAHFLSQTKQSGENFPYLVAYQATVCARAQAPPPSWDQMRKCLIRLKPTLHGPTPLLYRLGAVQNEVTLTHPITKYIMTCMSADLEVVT
UniProt P27958, 1658-1711: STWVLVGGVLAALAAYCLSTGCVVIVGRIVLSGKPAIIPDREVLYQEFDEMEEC

Each molecule was assayed against Recombinant heterodimeric HCV NS3/NS4A protease (strain 1a) (Hepatitis C virus genotype 1a, UniProt P27958) (assay: Spectrophotometric assay for HCV protease inhibitory activity). Details: Table 1, range.
Assay type: biochemical
For `C#CCCC(NC(=O)[C@@H]1[C@@H]2[C@H](CN1C(=O)[C@@H](NC(=O)N[C@H](CN(C)S(=O)(=O)N(C)C)C(C)(C)C)C(C)(C)C)C2(C)C)C(=O)C(=O)NCC=C` (some centres unmarked) [Compound 10007], the Ki was ≤ 75 nM.
`C=CCNC(=O)C(=O)C(CCCC)NC(=O)[C@@H]1[C@@H]2[C@H](CN1C(=O)[C@@H](NC(=O)N[C@H](CN(C)S(=O)(=O)N(C)C)C(C)(C)C)C(C)(C)C)C2(C)C` (some centres unmarked) [Compound 10003] was tested, and the Ki was ≤ 75 nM.
With `C#CCCC(NC(=O)[C@@H]1[C@@H]2[C@H](CN1C(=O)[C@@H](NC(=O)N[C@H](CN(C)S(=O)(=O)N1CCC1)C(C)(C)C)C(C)(C)C)C2(C)C)C(=O)C(=O)NCC=C` (some centres unmarked) [Compound 10051] the Ki was ≤ 75 nM.
For `CCNC(=O)C(=O)C(CC1CC1)NC(=O)[C@@H]1[C@@H]2[C@H](CN1C(=O)[C@@H](NC(=O)N[C@H](CN(C)S(=O)(=O)N1CCCCC1)C(C)(C)C)C(C)(C)C)C2(C)C` (some centres unmarked) [Compound 10062], the Ki was ≤ 75 nM.

Same assay, conditions: Table 2, range
With `CC(C)CC(C)(CN(C)S(=O)(=O)c1ccccc1)NC(=O)N[C@H](C(=O)N1C[C@H]2[C@@H]([C@H]1C(=O)NC(CC1CC1)C(=O)C(N)=O)C2(C)C)C(C)(C)C` (some centres unmarked) [Compound 11265] the Ki was ≤ 75 nM.
For `C=CCNC(=O)C(=O)C(CCC)NC(=O)[C@@H]1[C@@H]2[C@H](CN1C(=O)[C@@H](NC(=O)N[C@H](CN(C)S(=O)(=O)c1cccs1)CC(C)(C)C)C(C)(C)C)C2(C)C` (some centres unmarked) [Compound 11099], the Ki was 75 to 250 nM.
`C=CCNC(=O)C(=O)C(CC1CC1)NC(=O)[C@@H]1[C@@H]2[C@H](CN1C(=O)[C@@H](NC(=O)N[C@H](CN(C)S(=O)(=O)C1CC1)C(C)(C)C)C1CCCCC1)C2(C)C` (some centres unmarked) [Compound 11054] was tested, and the Ki was ≤ 75 nM.
In the case of `C=CCNC(=O)C(=O)C(CCCC)NC(=O)[C@@H]1[C@@H]2[C@H](CN1C(=O)[C@@H](NC(=O)N[C@H](CN(C)S(=O)(=O)C(C)(C)C)C(C)(C)C)C1Cc3ccccc3C1)C2(C)C` (some centres unmarked) [Compound 11247], the Ki is reported as ≤ 75 nM.
For `C=CCNC(=O)C(=O)C(CCC)NC(=O)[C@@H]1[C@@H]2[C@H](CN1C(=O)[C@@H](NC(=O)NCC1(N(C)S(C)(=O)=O)CCCCC1)C(C)(C)C)C2(C)C` (some centres unmarked) [Compound 11235], the Ki was ≤ 75 nM.
In the case of `CCCC(NC(=O)[C@@H]1[C@@H]2[C@H](CN1C(=O)[C@@H](NC(=O)N[C@H](CN(C)S(=O)(=O)c1cccs1)C(C)(C)C)C(C)(C)C)C2(C)C)C(=O)C(=O)NCC` (some centres unmarked) [Compound 11106], the Ki is reported as ≤ 75 nM.
In the case of `CCS(=O)(=O)N(C)C[C@@H](NC(=O)N[C@H](C(=O)N1C[C@H]2[C@@H]([C@H]1C(=O)NC(CC1CCC1)C(=O)C(N)=O)C2(C)C)C(C)(C)C)C(C)(C)C` (some centres unmarked) [Compound 11120], the Ki is reported as ≤ 75 nM.
`CN(C[C@@H](NC(=O)N[C@H](C(=O)N1C[C@H]2[C@@H]([C@H]1C(=O)NC(CC1CC1)C(=O)C(N)=O)C2(C)C)C1(C)CCCCC1)C(C)(C)C)S(C)(=O)=O` (some centres unmarked) [Compound 11251] was tested, and the Ki was ≤ 75 nM.
`CC[C@H](C)[C@@H](CN(C)S(=O)(=O)c1ccccc1)NC(=O)N[C@H](C(=O)N1C[C@H]2[C@@H]([C@H]1C(=O)NC(CC1CC1)C(=O)C(N)=O)C2(C)C)C(C)(C)C` (some centres unmarked) [Compound 11064] was tested, and the Ki was ≤ 75 nM.
With `C=CCNC(=O)C(=O)C(CC1CC1)NC(=O)[C@@H]1[C@@H]2[C@H](CN1C(=O)[C@@H](NC(=O)N[C@H](CN(C)S(=O)(=O)c1ccccc1)C(C)(C)C)C1CCCCC1)C2(C)C` (some centres unmarked) [Compound 11055] the Ki was ≤ 75 nM.
`C=CCNC(=O)C(=O)C(CCCC)NC(=O)[C@@H]1[C@@H]2[C@H](CN1C(=O)[C@@H](NC(=O)N[C@H](CN(C)S(=O)(=O)c1cccs1)C(C)(C)C)C1(C)CCCCC1)C2(C)C` (some centres unmarked) [Compound 11142] was tested, and the Ki was ≤ 75 nM.
For `CCCC(NC(=O)[C@@H]1[C@@H]2[C@H](CN1C(=O)[C@@H](NC(=O)N[C@H](CN(C)S(=O)(=O)C1CC1)CC(C)(C)C)C(C)(C)C)C2(C)C)C(=O)C(N)=O` (some centres unmarked) [Compound 11133], the Ki was ≤ 75 nM.
`CN(C[C@@H](NC(=O)N[C@H](C(=O)N1C[C@H](OC(C)(C)C)C[C@H]1C(=O)NC(CC1CC1)C(=O)C(N)=O)C1CCCCC1)C(C)(C)C)S(C)(=O)=O` (some centres unmarked) [Compound 11186] was tested, and the Ki was ≤ 75 nM.
In the case of `C=CCNC(=O)C(=O)C(CCCC)NC(=O)[C@@H]1[C@@H]2[C@H](CN1C(=O)[C@@H](NC(=O)N[C@H](CN(C)S(=O)(=O)c1ccccn1)C(C)(C)C)C1(C)CCCCC1)C2(C)C` (some centres unmarked) [Compound 11366], the Ki is reported as ≤ 75 nM.
For `C=CCNC(=O)C(=O)C(CC1CC1)NC(=O)[C@@H]1[C@@H]2[C@H](CN1C(=O)[C@@H](NC(=O)N[C@H](CN(C(C)C)S(=O)(=O)c1cccs1)C(C)(C)C)C(C)(C)C)C2(C)C` (some centres unmarked) [Compound 11240], the Ki was ≤ 75 nM.
For `C=CCNC(=O)C(=O)C(CCCC)NC(=O)[C@@H]1[C@@H]2[C@H](CN1C(=O)[C@@H](NC(=O)N[C@H](CN(C)S(=O)(=O)c1sc(C)nc1C)C(C)(C)C)C(C)(C)C)C2(C)C` (some centres unmarked) [Compound 11122], the Ki was ≤ 75 nM.
With `C#CCNC(=O)C(=O)C(CCCC)NC(=O)[C@@H]1[C@@H]2[C@H](CN1C(=O)[C@@H](NC(=O)N[C@H](CN(C)S(=O)(=O)CC)C(C)(C)C)C1Cc3ccccc3C1)C2(C)C` (some centres unmarked) [Compound 11335] the Ki was ≤ 75 nM.
`CCCCC(NC(=O)[C@@H]1[C@@H]2[C@H](CN1C(=O)[C@@H](NC(=O)N[C@H](CN(C)S(=O)(=O)C(C)(C)C)C(C)(C)C)C(C)(C)C)C2(C)C)C(=O)C(=O)NCC` (some centres unmarked) [Compound 11215] gave a Ki of 75 to 250 nM.
For `CN(C[C@@H](NC(=O)N[C@H](C(=O)N1C[C@H]2[C@@H]([C@H]1C(=O)NC(CC1CC1)C(=O)C(N)=O)C2(C)C)C1Cc2ccccc2C1)C(C)(C)C)S(C)(=O)=O` (some centres unmarked) [Compound 11147], the Ki was ≤ 75 nM.
In the case of `CC(C)(C)[C@H](NC(=O)NC1CCCN(S(=O)(=O)c2cccs2)C1)C(=O)N1C[C@H]2[C@@H]([C@H]1C(=O)NC(CC1CCC1)C(=O)C(N)=O)C2(C)C` (some centres unmarked) [Compound 11023], the Ki is reported as 75 to 250 nM.
`C#CCCC(NC(=O)[C@@H]1[C@@H]2[C@H](CN1C(=O)[C@@H](NC(=O)N[C@H](CN(C)S(=O)(=O)c1ccccn1)C(C)(C)C)C1(C)CCCCC1)C2(C)C)C(=O)C(=O)NCC=C` (some centres unmarked) [Compound 11372] was tested, and the Ki was ≤ 75 nM.
With `C=CCNC(=O)C(=O)C(CC1CC1)NC(=O)[C@@H]1[C@@H]2[C@H](CN1C(=O)[C@@H](NC(=O)N[C@H](CN(CC)S(=O)(=O)c1cccs1)C(C)(C)C)C(C)(C)C)C2(C)C` (some centres unmarked) [Compound 11222] the Ki was ≤ 75 nM.

Same assay, conditions: Table 4, range
In the case of `CC(C)(C)[C@H](NC(=O)N[C@H](CNC(=O)c1cncnc1)C(C)(C)C)C(=O)N1C[C@H]2[C@@H]([C@H]1C(=O)NC(CC1CC1)C(=O)C(N)=O)C2(C)C` (some centres unmarked) [Compound 13031], the Ki is reported as ≤ 75 nM.

Same assay, conditions: Table 5, range
Work on `C=CCNC(=O)C(=O)C(CCCC)NC(=O)[C@@H]1[C@@H]2[C@H](CN1C(=O)[C@@H](NC(=O)N[C@@H](CNC(=O)OCc1ccccc1)C(C)C)C(C)(C)C)C2(C)C` (some centres unmarked) [Compound 14017] yielded a Ki of 75 to 250 nM.
In the case of `CC(C)(C)OC(=O)NCC1(NC(=O)N[C@H](C(=O)N2C[C@H]3[C@@H]([C@H]2C(=O)NC(CC2CC2)C(=O)C(N)=O)C3(C)C)C(C)(C)C)CCCCC1` (some centres unmarked) [Compound 14005], the Ki is reported as ≤ 75 nM.
For `CC(C)OC(=O)NC[C@@H](NC(=O)N[C@H](C(=O)N1C[C@H]2[C@@H]([C@H]1C(=O)NC(CC1CCC1)C(=O)C(N)=O)C2(C)C)C(C)(C)C)C(C)C` (some centres unmarked) [Compound 14001], the Ki was ≤ 75 nM.
With `CC(C)NC(=O)NC[C@@H](NC(=O)N[C@H](C(=O)N1C[C@H]2[C@@H]([C@H]1C(=O)NC(CC1CCC1)C(=O)C(N)=O)C2(C)C)C(C)(C)C)C(C)C` (some centres unmarked) [Compound 14058] the Ki was ≤ 75 nM.

Same assay, conditions: Table 5A, range
`CCCCC(NC(=O)[C@@H]1[C@@H]2[C@H](CN1C(=O)[C@@H](NC(=O)N[C@H](CN(CC)S(=O)(=O)CC)C(C)(C)C)C1Cc3ccccc3C1)C2(C)C)C(=O)C(=O)NCCC` (some centres unmarked) [Compound 11403] was tested, and the Ki was ≤ 75 nM.
